Assays:
5-HT7 (h) [1] = molecular target: T1, 5-HT7 (h) (Homo sapiens, UniProt P34969); conditions: 45 min/37° C.; FIG. 2
Experimental: The apparent dissociation constants for antagonists Kb were calculated using the modified Cheng Prusoff equation.

Sequences of proteins named here, by UniProt entry; tags and fusion partners are left off.
UniProt P34969, whole entry: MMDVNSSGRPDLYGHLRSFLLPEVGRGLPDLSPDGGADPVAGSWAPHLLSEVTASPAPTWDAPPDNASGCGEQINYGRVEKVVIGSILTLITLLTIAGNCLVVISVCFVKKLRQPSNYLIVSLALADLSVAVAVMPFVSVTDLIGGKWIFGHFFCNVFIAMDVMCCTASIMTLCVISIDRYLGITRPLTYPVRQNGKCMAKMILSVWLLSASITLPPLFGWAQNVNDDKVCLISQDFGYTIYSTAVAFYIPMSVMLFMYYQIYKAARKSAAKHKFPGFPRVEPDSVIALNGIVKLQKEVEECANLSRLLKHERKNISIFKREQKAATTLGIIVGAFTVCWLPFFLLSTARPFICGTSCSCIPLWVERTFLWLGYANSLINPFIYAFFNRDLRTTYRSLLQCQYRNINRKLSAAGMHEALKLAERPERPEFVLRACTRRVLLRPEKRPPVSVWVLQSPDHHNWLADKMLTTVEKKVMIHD

5-HT7 (h) [2] = molecular target: T1, 5-HT7 (h)

## Viloxazine
5-HT7 (h) [1]
  agonist effect (cAMP response): no measurable response
5-HT7 (h) [2]
  antagonist activity (in words): specific antagonist activity
5-HT7 (h) [2]; read-out: antagonist IC50, serotonin-stimulated cAMP, 45 min/37° C., FIG. 3
  IC50: > 30 µM
